Experimental findings from ChEMBL document CHEMBL4346765, “Design, synthesis and biological evaluation of novel dithiocarbamate-substituted diphenylaminopyrimidine derivatives as BTK inhibitors” (Bioorg Med Chem, 2019) are described below.

Sequences of proteins named here, by UniProt entry; tags and fusion partners are left off. A change or cut given only in a name is not applied to a line headed by its entry.
UniProt Q06187: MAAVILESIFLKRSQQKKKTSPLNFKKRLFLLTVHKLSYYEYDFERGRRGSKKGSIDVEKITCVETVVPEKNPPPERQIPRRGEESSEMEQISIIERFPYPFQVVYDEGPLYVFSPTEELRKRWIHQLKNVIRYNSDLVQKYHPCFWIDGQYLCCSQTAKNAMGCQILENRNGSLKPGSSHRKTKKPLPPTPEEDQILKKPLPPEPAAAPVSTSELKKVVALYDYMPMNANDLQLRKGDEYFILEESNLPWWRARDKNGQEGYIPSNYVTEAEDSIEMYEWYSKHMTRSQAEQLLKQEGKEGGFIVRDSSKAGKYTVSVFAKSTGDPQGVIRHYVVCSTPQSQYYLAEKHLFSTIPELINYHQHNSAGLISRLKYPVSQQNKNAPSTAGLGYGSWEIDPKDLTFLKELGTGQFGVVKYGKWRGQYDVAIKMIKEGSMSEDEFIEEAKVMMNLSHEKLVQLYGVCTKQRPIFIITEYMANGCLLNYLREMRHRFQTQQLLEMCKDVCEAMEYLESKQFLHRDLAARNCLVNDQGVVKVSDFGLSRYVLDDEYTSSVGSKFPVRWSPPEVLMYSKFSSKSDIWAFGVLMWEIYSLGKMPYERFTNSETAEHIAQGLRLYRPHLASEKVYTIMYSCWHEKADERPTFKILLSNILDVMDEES

Molecules are shown by their SMILES.

This assay deals with Tyrosine-protein kinase BTK (Homo sapiens, UniProt Q06187). Briefly: Inhibition of human recombinant full length BTK expressed in baculovirus in Sf9 insect cells using Poly (4:1 Glu, Tyr) as substrate incubated for 1 hr by ADP-Glo assay.

On to `C=CC(=O)Nc1cccc(Nc2nc(Nc3ccc(OCCOC)cc3)ncc2F)c1` [SPEBRUTINIB], for which the IC50 was 2.12 nM.

A word on the IC50: it is the concentration that inhibits the measured activity by half.
